Data: publication doi:10.1101/2023.07.21.550003 (bioRxiv, 2023)

What was measured:
[1] = target: T1, canonical HER2, extracellular region (residues 22-587) (human, UniProt P04626 22-587); assay: ELISA
T1 chain: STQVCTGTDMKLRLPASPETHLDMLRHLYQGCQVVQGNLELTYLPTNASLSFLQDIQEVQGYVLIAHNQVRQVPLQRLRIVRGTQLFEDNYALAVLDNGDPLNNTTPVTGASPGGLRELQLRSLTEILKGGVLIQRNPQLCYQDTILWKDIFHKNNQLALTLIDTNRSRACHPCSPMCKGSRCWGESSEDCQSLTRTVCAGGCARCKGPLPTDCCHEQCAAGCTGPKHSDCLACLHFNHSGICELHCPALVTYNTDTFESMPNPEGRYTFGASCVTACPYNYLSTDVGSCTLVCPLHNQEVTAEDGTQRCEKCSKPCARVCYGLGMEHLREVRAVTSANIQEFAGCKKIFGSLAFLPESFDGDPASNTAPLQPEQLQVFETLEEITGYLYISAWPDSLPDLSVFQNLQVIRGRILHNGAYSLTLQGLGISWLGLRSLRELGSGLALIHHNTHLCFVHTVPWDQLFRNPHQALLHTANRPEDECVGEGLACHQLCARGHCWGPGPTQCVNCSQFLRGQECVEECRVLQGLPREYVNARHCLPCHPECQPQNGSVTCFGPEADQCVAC

[2] = target: T1, canonical HER2, extracellular region …; assay: ELISA

- Kd [1]: 777 pM
- Kd [2]: 817 pM
B1: Pertuzumab IgG (antibody, V domains shown)
VH: EVQLVESGGGLVQPGGSLRLSCAASGFTFTDYTMDWVRQAPGKGLEWVADVNPNSGGSIYNQRFKGRFTLSVDRSKNTLYLQMNSLRAEDTAVYYCARNLGPSFYFDYWGQGTLVTVSS
VL: DIQMTQSPSSLSASVGDRVTITCKASQDVSIGVAWYQQKPGKAPKLLIYSASYRYTGVPSRFSGSGSGTDFTLTISSLQPEDFATYYCQQYYIYPYTFGQGTKVEIK

Where two headings read alike, the source gives them in different places.
